## Measured affinities in a library of Ab-14 light chain variants

Antigen: PDVDLGDISGINAS, a 14-residue peptide of the SARS-CoV-2 spike HR2 region.

Each scFv is VH, the linker GGGGSGGGGSGGGGS, VL, as in the parent Ab-14, and differs from it in the CDRs of the light chain only.
VH: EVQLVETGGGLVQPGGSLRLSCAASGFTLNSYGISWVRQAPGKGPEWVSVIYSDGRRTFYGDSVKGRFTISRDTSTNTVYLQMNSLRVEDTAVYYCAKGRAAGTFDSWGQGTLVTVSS
VL: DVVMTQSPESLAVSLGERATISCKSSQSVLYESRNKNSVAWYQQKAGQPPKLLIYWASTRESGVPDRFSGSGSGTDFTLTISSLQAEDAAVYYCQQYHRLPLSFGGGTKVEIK

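Phage display of a naive human antibody library on the peptide gave the parent. These sequences belong to a second round, designed from the earlier measurements on random variants of the parent. Several design methods are mixed in this list. The scFvs were displayed on barcoded MATa yeast, the peptide on MATalpha yeast. After mating in shaken culture at 30 °C for 16 h, diploids were selected and their barcode pairs sequenced. The ratio of observed to expected reads was calibrated, replicate by replicate, on BCL2-family standards whose Kd was known from biolayer interferometry. The assay was run in six technical replicates.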

Sequences are complete VL domains. Variants here have at most six changes. Each Kd is an estimate from the mating assay, the geometric mean of the replicates in which the pair was seen; lower is stronger. An entry "not detected" has no value in the source: the pair was not observed among the diploids in any replicate. This suggests poor binding but is not conclusive. Entries are sorted by rising average, undetected variants last.

VL,Kd,replicates with signal,signal with controls
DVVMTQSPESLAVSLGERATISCKLEQSHLYESRNKNSVAWYQQKAGQPPKLLIYNASQRESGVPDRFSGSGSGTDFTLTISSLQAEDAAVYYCQQYHRLPLSFGGGTKVEIK,380 pM,6/6,1/18
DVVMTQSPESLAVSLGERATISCKVSQEMLYESRNKNSVAWYQQKAGQPPKLLIYDASTRESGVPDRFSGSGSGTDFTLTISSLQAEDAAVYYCQQYHRLPLSFGGGTKVEIK,390 pM,6/6,0/18
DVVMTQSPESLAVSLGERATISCKFEQSVLYESRNKNSVAWYQQKAGQPPKLLIYEASTRESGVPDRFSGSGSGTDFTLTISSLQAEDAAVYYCQQYHRLPLSFGGGTKVEIK,440 pM,6/6,4/18
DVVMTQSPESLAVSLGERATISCKLSQSKGYESRNPNSVAWYQQKAGQPPKLLIYNASTRERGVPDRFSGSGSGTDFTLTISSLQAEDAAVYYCQQYHRLPLSFGGGTKVEIK,570 pM,6/6,1/18
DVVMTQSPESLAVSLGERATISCKLSQSCLYESRNKNSVAWYQQKAGQPPKLLIYEASTRCSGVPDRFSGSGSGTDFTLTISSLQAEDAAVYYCQQYHRLPLSFGGGTKVEIK,850 pM,6/6,1/18
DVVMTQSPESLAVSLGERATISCKYSQSVLYESRNKNNVAWYQQKAGQPPKLLIYGASTRESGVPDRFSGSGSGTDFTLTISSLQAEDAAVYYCQQYHRLPLSFGGGTKVEIK,850 pM,6/6,0/18
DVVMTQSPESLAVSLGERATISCHLSDSVLYESRNKNSVAWYQQKAGQPPKLLIYGASTRESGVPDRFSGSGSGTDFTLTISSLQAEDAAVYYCQQYHRLPLNFGGGTKVEIK,880 pM,6/6,3/18
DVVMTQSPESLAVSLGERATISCKVSQSDLYESRNKNAVAWYQQKAGQPPKLLIYNASTRESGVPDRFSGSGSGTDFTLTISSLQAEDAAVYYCQQYHRLPLSFGGGTKVEIK,1.0 nM,6/6,0/18
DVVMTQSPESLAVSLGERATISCKSGQGVDYESRNKNSVAWYQQKAGQPPKLLIYGASQRWSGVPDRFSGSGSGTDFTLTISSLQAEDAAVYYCQQYHRLPLSFGGGTKVEIK,1.0 nM,6/6,1/18
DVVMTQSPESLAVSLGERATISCKLPQSVLYESRNKNSVAWYQQKAGQPPKLLIYNASTRFSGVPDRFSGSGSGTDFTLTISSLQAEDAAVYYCQQYHRLPLSFGGGTKVEIK,1.0 nM,6/6,0/18
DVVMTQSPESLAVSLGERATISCKSSQSWLYESRVKNSVAWYQQKAGQPPKLLIYGASTRESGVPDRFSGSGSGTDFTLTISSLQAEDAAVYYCQQYHRLPLSFGGGTKVEIK,1.9 nM,6/6,1/18
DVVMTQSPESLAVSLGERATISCKSSQSVIYESRKMNSVAWYQQKAGQPPKLLIYRASTRESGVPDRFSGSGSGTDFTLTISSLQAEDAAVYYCQQYARLPLSFGGGTKVEIK,2.2 nM,6/6,0/18
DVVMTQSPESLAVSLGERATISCKSSISYLYESVNTNSVAWYQQKAGQPPKLLIYEASTRESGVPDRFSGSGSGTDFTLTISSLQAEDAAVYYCQQYHRLPLSFGGGTKVEIK,2.2 nM,6/6,0/18
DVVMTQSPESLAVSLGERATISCKLPQSHLYESRMKNSVAWYQQKAGQPPKLLIYNASTRESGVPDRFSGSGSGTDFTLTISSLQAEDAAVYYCQQYHRLPLSFGGGTKVEIK,2.4 nM,6/6,3/18
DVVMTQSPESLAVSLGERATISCKSSQSFLYESRNKNSVAWYQQKAGQPPKLLIYSASTRESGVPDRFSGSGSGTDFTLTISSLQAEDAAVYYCQQYHRLPLSFGGGTKVEIK,3.0 nM,6/6,1/18
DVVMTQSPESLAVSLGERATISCKLSQSYLYESRNKNSVAWYQQKAGQPPKLLIYNASTRESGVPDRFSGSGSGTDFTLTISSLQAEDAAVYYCQDYHRLPLSFGGGTKVEIK,3.0 nM,6/6,2/18
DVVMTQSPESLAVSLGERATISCKFSQSVLYESRNKNSVAWYQQKAGQPPKLLIYNASYRESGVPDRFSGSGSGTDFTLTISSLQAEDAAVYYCQQYHRLPLSFGGGTKVEIK,3.2 nM,6/6,0/18
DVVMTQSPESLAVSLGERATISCKSSQSWLYESRNHNSVAWYQQKAGQPPKLLIYEASTRESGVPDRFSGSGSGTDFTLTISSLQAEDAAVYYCQQDHRLPLSFGGGTKVEIK,23 nM,6/6,0/18
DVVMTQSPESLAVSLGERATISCKHSISYLGESRNKNSVAWYQQKAGQPPKLLIYEASTRESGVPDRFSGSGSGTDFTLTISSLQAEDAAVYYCQQYHRLPLSFGGGTKVEIK,27 nM,6/6,0/18
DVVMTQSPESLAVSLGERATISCKLSQSVLYESRNKISVAWYQQKAGQPPKLLIYWASTRESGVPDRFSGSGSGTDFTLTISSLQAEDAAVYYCQQYHRLPLSFGGGTKVEIK,140 nM,6/6,1/18
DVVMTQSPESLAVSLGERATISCKSSQSVLMESRNKNSVAWYQQKAGQPPKLLIYWVSTRESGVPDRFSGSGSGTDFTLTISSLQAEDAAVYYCQQYHRLPLSFGGGTKVEIK,170 nM,4/6,0/18
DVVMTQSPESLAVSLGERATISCKSSQGVGYESRNKNMVAWYQQKAGQPPKLLIYWASTRESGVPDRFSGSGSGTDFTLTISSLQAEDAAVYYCQQYHRLPLSFGGGTKVEIK,not detected,0/6,1/18
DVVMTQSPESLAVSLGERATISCKDSQSVLYESRNHNSVAWYQQKAGQPPKLLIYWASTRESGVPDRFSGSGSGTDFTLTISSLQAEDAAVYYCQYYHRLPLSFGGGTKVEIK,not detected,0/6,0/18
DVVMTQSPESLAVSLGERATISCKSSQSVLYESRNKNSVAWYQQKAGQPPKLLIYWASTREIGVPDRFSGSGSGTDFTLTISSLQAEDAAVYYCQQYHRLHLSFGGGTKVEIK,not detected,0/6,0/18
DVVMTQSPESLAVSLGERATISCKSSQSFLYESRNKNSVAWYQQKAGQPPKLLIYGASTRTSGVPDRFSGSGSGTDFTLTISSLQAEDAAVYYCQQYHRLTLWFGGGTKVEIK,not detected,0/6,0/18

4 of these entries, quoted again:

{"VL": "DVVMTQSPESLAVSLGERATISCKDSQSVLYESRNHNSVAWYQQKAGQPPKLLIYWASTRESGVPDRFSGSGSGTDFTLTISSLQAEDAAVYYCQYYHRLPLSFGGGTKVEIK", "Kd": "not detected", "replicates with signal": "0/6", "signal with controls": "0/18"}
{"VL": "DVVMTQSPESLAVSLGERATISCKLSQSYLYESRNKNSVAWYQQKAGQPPKLLIYNASTRESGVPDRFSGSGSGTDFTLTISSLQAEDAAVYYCQDYHRLPLSFGGGTKVEIK", "Kd": "3.0 nM", "replicates with signal": "6/6", "signal with controls": "2/18"}
{"VL": "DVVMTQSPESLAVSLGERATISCKSSQSVLMESRNKNSVAWYQQKAGQPPKLLIYWVSTRESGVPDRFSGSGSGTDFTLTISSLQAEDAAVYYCQQYHRLPLSFGGGTKVEIK", "Kd": "170 nM", "replicates with signal": "4/6", "signal with controls": "0/18"}
{"VL": "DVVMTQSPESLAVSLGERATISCKSGQGVDYESRNKNSVAWYQQKAGQPPKLLIYGASQRWSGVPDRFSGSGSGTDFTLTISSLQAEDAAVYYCQQYHRLPLSFGGGTKVEIK", "Kd": "1.0 nM", "replicates with signal": "6/6", "signal with controls": "1/18"}

A sequence measured in both rounds can read differently, since the two assays cover different ranges. The authors averaged sequences with at least three values out of six and counted those with two or fewer as poor binders. As a blank, each scFv also met three strains without target: over all light chain designs, 4% of these pairings were detected, typically at 430 nM and seldom below 38 nM. The control count says in how many pairings with the empty strains this scFv gave a signal. Of ten entries with the parent sequence, four were seen in most replicates (averages 2.2 nM to 240 nM), three in one and three in none, so single entries are noisy.

Data: MIT Lincoln Laboratory AlphaSeq set, Li et al. 2023, doi:10.1038/s41467-023-39022-2, as distributed in FLAb.